Experimental findings from patent US10696677B2 (Research Triangle Institute, priority 2016, dated 2020) are described below.

Chains of the proteins cited; added tags and fusions are not shown.
UniProt P21554, whole entry: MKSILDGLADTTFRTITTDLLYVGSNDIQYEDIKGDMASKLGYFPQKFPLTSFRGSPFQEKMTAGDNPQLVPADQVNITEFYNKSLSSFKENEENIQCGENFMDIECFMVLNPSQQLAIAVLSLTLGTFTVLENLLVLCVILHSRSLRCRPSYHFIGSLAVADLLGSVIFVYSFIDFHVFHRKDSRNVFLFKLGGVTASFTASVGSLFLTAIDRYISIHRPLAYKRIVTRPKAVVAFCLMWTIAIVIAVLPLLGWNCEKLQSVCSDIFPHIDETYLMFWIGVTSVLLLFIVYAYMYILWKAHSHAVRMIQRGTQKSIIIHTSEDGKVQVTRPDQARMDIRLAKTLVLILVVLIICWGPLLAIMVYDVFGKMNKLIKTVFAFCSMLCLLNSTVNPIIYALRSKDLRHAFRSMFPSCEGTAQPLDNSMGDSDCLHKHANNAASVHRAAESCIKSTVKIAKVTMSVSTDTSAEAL
UniProt P34972, whole entry: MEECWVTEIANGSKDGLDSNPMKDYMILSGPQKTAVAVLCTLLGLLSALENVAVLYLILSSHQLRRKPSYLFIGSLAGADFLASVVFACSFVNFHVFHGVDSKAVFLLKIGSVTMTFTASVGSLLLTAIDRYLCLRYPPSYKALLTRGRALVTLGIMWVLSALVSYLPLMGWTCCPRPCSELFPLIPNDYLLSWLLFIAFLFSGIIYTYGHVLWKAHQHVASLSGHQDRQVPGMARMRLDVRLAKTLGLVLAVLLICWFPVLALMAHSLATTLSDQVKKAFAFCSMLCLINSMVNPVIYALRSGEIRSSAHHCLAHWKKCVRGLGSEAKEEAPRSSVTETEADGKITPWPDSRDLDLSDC

Like-named read-outs stand apart in the source and are kept apart here. Where only a bound is given, the exact number is not on record here.

The target in data set [1] is T1, hCB1 (Homo sapiens, UniProt P21554). Description: radioligand displacement binding at CB1 (membranes of CHO-K1 cells over-expressing receptor). As to conditions: for CB2 Ki/CB1 Ki selectivity ratio: CB1 versus CB2. (In general: In a radioligand displacement assay an active substance lowers the binding of a labelled ligand.)
Another data set deals with hCB2 (Homo sapiens, UniProt P34972). Description: radioligand displacement binding at CB2 ([3H]CP55940, membranes of CHO-K1 cells over-expressing receptor).
For data set [2], the target named is T1, hCB1. Description: functional fluorescent CB1 activated Gαq16-coupled intracellular calcium mobilization assay in CHO-K1 cells. The format is cell-based. Further details: expressed in transfected cells; host or cells: CHO-K1 (membranes). On the technique in general: Calcium assays in cells follow changes in intracellular calcium, usually with a dye or a luminescent sensor.

The next data set deals with MDCK. Description: MDCK BBB Assay. The format is in vitro ADME. As to conditions: MDCK cells.
The mark [3] stands for this setting: read-out: Binding affinity (Ki) at hCB1, radioligand displacement, CHO-K1 membranes, average of 3-6 measurements.
The mark [4] stands for this setting: calcium mobilization, CHO-K1 cells, average of 3-6 measurements, read-out: Apparent antagonist dissociation constant (Ke) at hCB1.
Where [5] appears, read: displacement of [3H]CP55940, CHO-K1 membranes, average of 3-6 measurements.
Where [6] appears, read: read-out: Binding affinity (Ki) at hCB2, displacement of [3H]CP55940, CHO-K1 membranes, average of 3-6 measurements.

Consider `O=C(Nc1ccccc1)NC1CCN(c2ncnc3c2nc(-c2ccccc2Cl)n3-c2ccc(Cl)cc2)CC1` [Compound 18, 3-{1-[8-(2-Chlorophenyl)-9-(4-chlorophenyl)-9H-purin-6-yl]piperidin-4-yl}-1-phenylurea], for which the inhibition constant Ki (commonly a dissociation constant, usually derived from enzyme kinetics or from competition with a known ligand) at hCB1 [1] (setting [3]) was 0.007 µM; at hCB2, > 5 µM. At hCB1 [2] (setting [4]), the Kb was 0.03 µM.

As for `O=C(Nc1ccccc1F)NC1CCN(c2ncnc3c2nc(-c2ccccc2Cl)n3-c2ccc(Cl)cc2)CC1` [Compound 19, 3-{1-[8-(2-Chlorophenyl)-9-(4-chlorophenyl)-9H-purin-6-yl]piperidin-4-yl}-1-(2-fluorophenyl)urea], the “CB2 Ki/CB1 Ki selectivity ratio” value at hCB1 [1] turned out to be 4200. For the same compound, the inhibition constant (Ki) at hCB1 [1] (setting [3]) worked out at 0.004 µM; at hCB2, 17 µM. The “MDCK BBB Assay (Basolateral/Apical Peak Area Ratio) Mean” value in the data set with MDCK worked out at 0.001. Besides, the Kb at hCB1 [2] worked out at 0.052 µM.

As to `O=C(Nc1ccc(F)cc1)NC1CCN(c2ncnc3c2nc(-c2ccccc2Cl)n3-c2ccc(Cl)cc2)CC1` [Compound 23, 3-{1-[8-(2-Chlorophenyl)-9-(4-chlorophenyl)-9H-purin-6-yl]piperidin-4-yl}-1-(4-fluorophenyl)urea], the Ki on hCB1 [1] (setting [3]) came to 0.022 µM; on hCB2, 8.2 µM. In addition, the Kb on hCB1 [2] was 0.045 µM.

As to `O=C(Nc1ccc(C(F)(F)F)nc1)NC1CCN(c2ncnc3c2nc(-c2ccccc2Cl)n3-c2ccc(Cl)cc2)CC1` [Compound 24, 3-{1-[8-(2-Chlorophenyl)-9-(4-chlorophenyl)-9H-purin-6-yl]piperidin-4-yl}-1-[6-(trifluoromethyl)pyridin-3-yl]urea], on hCB1 [1], the affinity corresponds to a Ki of 0.028 µM and the “CB2 Ki/CB1 Ki selectivity ratio” value is >250. On hCB2, the Ki is > 7 µM. The Kb at hCB1 [2] (setting [4]) came out at 0.037 µM.

For the compound `Clc1ccc(-n2c(-c3ccccc3Cl)nc3c(N4CCN(C5CCCCC5)CC4)ncnc32)cc1` [Compound 66, 8-(2-Chlorophenyl)-9-(4-chlorophenyl)-6-(4-cyclohexylpiperazin-1-yl)-9H-purine], the inhibition constant Ki worked out at 0.0018 µM on hCB1 [1] and 0.112 µM on hCB2. For the same compound, the Kb at hCB1 [2] (setting [4]) came to 0.017 µM.

On to `Clc1ccc(-n2c(-c3ccccc3Cl)nc3c(N4CCN(c5ccccn5)CC4)ncnc32)cc1` [Compound 67, 8-(2-Chlorophenyl)-9-(4-chlorophenyl)-6-(4-pyridin-2-ylpiperazin-1-yl)-9H-purine], for which the Ki was 0.0024 µM on hCB1 [1] and 2.71 µM at hCB2. Besides, the “CB2 Ki/CB1 Ki selectivity ratio” value on hCB1 [1] was 1136. Besides, in the data set on MDCK, the “MDCK BBB Assay (Basolateral/Apical Peak Area Ratio) Mean” value was determined as 0.001. Also, on hCB1 [2] (setting [4]), the Kb worked out at 0.013 µM.

For the compound `N#Cc1ccccc1CN1CCN(c2ncnc3c2nc(-c2ccccc2Cl)n3-c2ccc(Cl)cc2)CC1` [Compound 75, 6-[4-(2-Cyanobenzyl)piperazin-1-yl]-8-(2-chlorophenyl)-9-(4-chlorophenyl)-9H-purine], the “CB2 Ki/CB1 Ki selectivity ratio” value on hCB1 [1] is 6700. In addition, the inhibition constant Ki was 0.003 µM on hCB1 [1] (setting [3]) and 20 µM on hCB2. Besides, the Kb at hCB1 [2] (setting [4]) came out at 0.021 µM.

Regarding `Clc1ccc(-n2c(-c3ccccc3Cl)nc3c(N4CCN(c5ccccc5)CC4)ncnc32)cc1` [Compound 76, 8-(2-Chlorophenyl)-9-(4-chlorophenyl)-6-(4-phenylpiperazin-1-yl)-9H-purine], on hCB2 (setting [5]), the “Binding affinity (Ki) at hCB2” value was “inactive”.

On to `Clc1ccc(CN2CCN(c3ncnc4c3nc(-c3ccccc3Cl)n4-c3ccc(Cl)cc3)CC2)cc1` [Compound 77, 6-[4-(4-Chlorobenzyl)piperazin-1-yl]-8-(2-chlorophenyl)-9-(4-chlorophenyl)-9H-purine], for which the “Binding affinity (Ki) at hCB2” value on hCB2 (setting [5]) was “inactive”.

Consider `Fc1ccccc1CN1CCN(c2ncnc3c2nc(-c2ccccc2Cl)n3-c2ccc(Cl)cc2)CC1` [Compound 96, 8-(2-Chlorophenyl)-9-(4-chlorophenyl)-6-[4-(2-fluorobenzyl)piperazin-1-yl]-9H-purine], for which the Ki at hCB1 [1] stood at 0.0068 µM; at hCB2, 2.26 µM. In addition, the Kb at hCB1 [2] (setting [4]) was 0.0009 µM.

With `Fc1ccc(CN2CCN(c3ncnc4c3nc(-c3ccccc3Cl)n4-c3ccc(Cl)cc3)CC2)cc1` [Compound 97, 8-(2-Chlorophenyl)-9-(4-chlorophenyl)-6-[4-(4-fluorobenzyl)piperazin-1-yl]-9H-purine], the affinity at hCB1 [1] corresponds to a Ki of 0.0036 µM. Also, the “Binding affinity (Ki) at hCB2” value on hCB2 (setting [5]) was “inactive”. In addition, the Kb on hCB1 [2] was 0.0015 µM.

At hCB2, `Clc1ccc(-n2c(-c3ccccc3Cl)nc3c(N4CCN(Cc5ccccc5Cl)CC4)ncnc32)cc1` [Compound 98, 6-[4-(2-Chlorobenzyl)piperazin-1-yl]-8-(2-chlorophenyl)-9-(4-chlorophenyl)-9H-purine] yielded an inhibitory constant (Ki) of 0.775 µM.

In the case of `Clc1ccc(-n2c(-c3ccccc3Cl)nc3c(N4CCN(Cc5cccc(Cl)c5)CC4)ncnc32)cc1` [Compound 99, 6-[4-(3-Chlorobenzyl)piperazin-1-yl]-8-(2-chlorophenyl)-9-(4-chlorophenyl)-9H-purine], on hCB2, affinity was put at a Ki of 0.054 µM.

In the case of `Cc1ccc(CN2CCN(c3ncnc4c3nc(-c3ccccc3Cl)n4-c3ccc(Cl)cc3)CC2)cc1` [Compound 101, 8-(2-Chlorophenyl)-9-(4-chlorophenyl)-6-[4-(4-methylbenzyl)piperazin-1-yl]-9H-purine], the “Binding affinity (Ki) at hCB2” value on hCB2 (setting [5]) was “inactive”.

`COc1ccc(CN2CCN(c3ncnc4c3nc(-c3ccccc3Cl)n4-c3ccc(Cl)cc3)CC2)cc1` [Compound 102, 8-(2-Chlorophenyl)-9-(4-chlorophenyl)-6-[4-(4-methoxybenzyl)piperazin-1-yl]-9H-purine]: the “Binding affinity (Ki) at hCB2” value at hCB2 (setting [5]) was “inactive”.

In the case of `Clc1ccc(-n2c(-c3ccccc3Cl)nc3c(N4CCN(Cc5ccncc5)CC4)ncnc32)cc1` [Compound 105, 8-(2-Chlorophenyl)-9-(4-chlorophenyl)-6-[4-(pyridin-4-ylmethyl)piperazin-1-yl]-9H-purine], the inhibition constant (Ki) stood at 0.0224 µM on hCB1 [1] and 1.72 µM at hCB2 (setting [6]). The Kb on hCB1 [2] (setting [4]) was determined as 0.006 µM.

As for `CC(c1ccncc1)N1CCN(c2ncnc3c2nc(-c2ccccc2Cl)n3-c2ccc(Cl)cc2)CC1` (stereo not shown) [Compound 106, 8-(2-Chlorophenyl)-9-(4-chlorophenyl)-6-[4-(1-pyridin-4-ylethyl)piperazin-1-yl]-9H-purine], the Ki worked out at 0.0119 µM on hCB1 [1] (setting [3]) and 1.13 µM on hCB2. For the same compound, on hCB1 [2] (setting [4]), the Kb was determined as 0.0005 µM.

With `FC(F)(F)c1ccccc1CN1CCN(c2ncnc3c2nc(-c2ccccc2Cl)n3-c2ccc(Cl)cc2)CC1` [Compound 111, 8-(2-Chlorophenyl)-9-(4-chlorophenyl)-6-{4-[2-(trifluoromethyl)benzyl]piperazin-1-yl}-9H-purine], at hCB1 [1], the “CB2 Ki/CB1 Ki selectivity ratio” value is >10000. The Ki at hCB1 [1] (setting [3]) is 0.005 µM; at hCB2, > 50 µM. On hCB1 [2] (setting [4]), the Kb was 0.005 µM.

Consider `Clc1ccc(-n2c(-c3ccccc3Cl)nc3c(N4CCN(Cc5ccncc5Cl)CC4)ncnc32)cc1` [Compound 113, 8-(2-chlorophenyl)-9-(4-chlorophenyl)-6-(4-[(3-chloropyridin-4-yl)methyl]piperazin-1-yl}-9H-purine], for which the “CB2 Ki/CB1 Ki selectivity ratio” value on hCB1 [1] stood at 13000. Further, the results for the Ki at hCB1 [1] (setting [3]) and on hCB2 were 0.003 µM and 38 µM, respectively. The Kb on hCB1 [2] (setting [4]) was found to be 0.003 µM.

Regarding `Cc1c(CN2CCN(c3ncnc4c3nc(-c3ccccc3Cl)n4-c3ccc(Cl)cc3)CC2)cnn1C` [Compound 114, 8-(2-Chlorophenyl)-9-(4-chlorophenyl)-6-{4-[(1,5-dimethyl-1H-pyrazol-4-yl)methyl]piperazin-1-yl}-9H-purine], the “CB2 Ki/CB1 Ki selectivity ratio” value at hCB1 [1] came out at 120. Besides, the Ki stood at 0.008 µM on hCB1 [1] (setting [3]) and 0.99 µM on hCB2 (setting [6]). Also, on hCB1 [2] (setting [4]), the Kb is 0.042 µM.

`Cc1nc(CN2CCN(c3ncnc4c3nc(-c3ccccc3Cl)n4-c3ccc(Cl)cc3)CC2)no1` [Compound 115, 8-(2-Chlorophenyl)-9-(4-chlorophenyl)-6-{4-[(5-methyl-1,2,4-oxadiazol-3-yl)methyl]piperazin-1-yl}-9H-purine]: the “CB2 Ki/CB1 Ki selectivity ratio” value at hCB1 [1] is given as 150. For the same compound, the Ki at hCB1 [1] (setting [3]) is 0.024 µM; at hCB2 (setting [6]), 3.6 µM. For the same compound, the Kb on hCB1 [2] (setting [4]) is 0.012 µM.

In the case of `O=C(NC1CCN(c2ncnc3c2nc(-c2ccccc2Cl)n3-c2ccc(Cl)cc2)CC1)NC1CCC(F)(F)CC1` [Compound 124, 3-{1-[8-(2-Chlorophenyl)-9-(4-chlorophenyl)-9H-purin-6-yl]piperidin-4-yl}-1-(4,4-difluorocyclohexyl)urea], the “CB2 Ki/CB1 Ki selectivity ratio” value at hCB1 [1] is listed as >500. Also, the Ki at hCB1 [1] (setting [3]) is 0.018 µM; at hCB2 it was > 10 µM. Also, the Kb at hCB1 [2] (setting [4]) is 0.079 µM.

For the compound `O=C(NCc1ccc(F)cc1)NC1CCN(c2ncnc3c2nc(-c2ccccc2Cl)n3-c2ccc(Cl)cc2)CC1` [Compound 128, 3-{1-[8-(2-Chlorophenyl)-9-(4-chlorophenyl)-9H-purin-6-yl]piperidin-4-yl}-1-[(4-fluorophenyl)methyl]urea], the “CB2 Ki/CB1 Ki selectivity ratio” value on hCB1 [1] is given as >1600. For the same compound, the inhibitory constant (Ki) is 0.003 µM on hCB1 [1] (setting [3]) and > 5 µM on hCB2. Also, the Kb on hCB1 [2] (setting [4]) amounted to 0.051 µM.

With `CC1(NC(=O)NS(=O)(=O)c2ccccc2F)CCN(c2ncnc3c2nc(-c2ccccc2Cl)n3-c2ccc(Cl)cc2)CC1` [Compound 129, 3-{1-[8-(2-Chlorophenyl)-9-(4-chlorophenyl)-9H-purin-6-yl]-4-methylpiperidin-4-yl}-1-[(2-fluorobenzene)sulfonyl]urea], on hCB1 [1], the “CB2 Ki/CB1 Ki selectivity ratio” value is >80. The Ki is 0.12 µM on hCB1 [1] (setting [3]) and > 10 µM on hCB2. For the same compound, the Kb on hCB1 [2] (setting [4]) stood at 0.007 µM.
